Measurements: patent publication US20090209474A1, “NOVEL USES FOR DRUGS TARGETING GLUTAMINE SYNTHETASE” (NEWTHERA, priority 2005, published 2009)

Test system: C6 glioblastoma cells
Conditions: tianeptine 0.25 nM

CS(=N)(=O)CC[C@H](N)C(=O)O (stereo partly drawn) [MS, 2-amino-4-(S-methylsulfonimidosyl)butanoic acid]
decreased total apoptosis: total apoptosis induced by NH4Cl 10 mM plus glutamate 50 mM (24 h, MS 0.25 μM) | total apoptosis induced by L-glutamate 50 mM (24 h, MS […]) | total apoptosis induced by NH4Cl 10 mM (72 h, MS […])
